# In ChEMBL document CHEMBL5143750, “Bisubstrate Inhibitors of Severe Acute Respiratory Syndrome Coronavirus-2 Nsp14 Methyltransferase” (ACS Med Chem Lett, 2022):
# Assay: Metabolic stability in human liver S9 fraction assessed as half life at 1 micromol/L in presence of UDPGA measured upto 24 hrs by LC-MS/MS analysis
# Assay type: ADME, subcellular
# Conditions: s9, 24 h, 1 µM, dose 1 µmol/L
# Procedure, shortened: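 Compound was incubated in human liver S9 fraction supplemented with the cofactors NADPH (Phase I oxidation) and UDPGA (Phase II glucuronidation). Percentage of parent remaining was followed over the incubation, and data are mean ± SD.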
compound,measurement,value
O=c1ccc2ccc(O)cc2o1 [UMBELLIFERONE],t1/2,3 min
